One molecule from patent US20080221078A1, “Use of a CB1 Antagonist for Treating Side Effects and Negative Symptoms of Schizophrenia” (priority 2005, published 2008) can be followed below.

The structures appear in SMILES notation.

The subject of data set [1] is Female Wistar rats on high fat diet. Put plainly: Antipsychotic (olanzapine) induced weight gain. The note with it: olanzapine 3 mg/kg i.p.
Data set [2] is described as follows: Antipsychotic induced catalepsy (bar test). The conditions noted are these: male, Sprague-Dawley, rat, in vivo, intraperitoneal.
Another data set has as its system Male Sprague-Dawley rats. In words: Antipsychotic induced catalepsy (bar test). The note with it: olanzapine 10 mg/kg.

For `Cc1cc2c(s1)Nc1ccccc1N=C2N1CCN(C)CC1` [olanzapine, reference compound], the “weight gain vs. saline controls” value in data set [1] is on record as “significantly caused an increase in weight gain”. Moreover, the “time at which the increase in weight gain was significant” value in data set [1] (lasted to the end of the study) was determined as 5 days. Moreover, the 50% effect level in data set [2] (ED50 at 30 min) was put at a dose of 9.34 mg/kg. Besides, the induction of catalepsy result in the data set with Male Sprague-Dawley rats was “only induces catalepsy at higher dose”.
